A selection: hits, their analogues and other compounds. The true share with any hit is near 16%.
TDP1 cell CPT: DT40-hTDP1 cell growth loss with CPT. Potency, µM (doses to about 46.2 µM), without a hit: at the top dose activity change, negative = growth inhibition, usual class: inhibitors. AID 686979. chicken DT40 Tdp1-/-;hTDP1 cells + 20 nM CPT, ATP luminescence, 48 h. actives 12% (n = 420,000); note: potency is the fitted concentration of half-maximal effect; % is set by controls: 0 for no effect and ±100 for the full control effect; nearly all actives have a fitted effect of over 55% in size
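Chicken DT40 Tdp1-/- cells complemented with human TDP1, 400 cells/well, exposed to compounds plus 20 nM camptothecin for at least 48 h at 37 C; viability read as ATP content by CellTiter-Glo luminescence.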
TDP1 inh: blocks human tyrosyl-DNA phosphodiesterase 1; Q9NUW8; recombinant TDP1, AlphaScreen DNA substrate cleavage; Potency, µM (series often up to 130 µM), for inactives: at the highest dose activity change, negative = inhibition, most hits filed as inhibitors; actives 0.28% (n = 350,000); note: potency is the fitted concentration of half-maximal effect; % is set by controls: 0 for no effect and ±100 for the full control effect; nearly all actives have a fitted effect of over 40% in size
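Tdp1 1 nM final; 15 min RT w/ cpd; substrate 15 nM, 5 min; beads 10 ug/ml, 10 min; AlphaScreen read. Neg ctrl: no enzyme.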
uPA generation: blocks generation of uPA at the cell surface. cell surface uPA generation assay, qHTS. Potency, µM (doses to about 38.3 µM), without a hit: top-dose activity change, negative = inhibition, usual class: inhibitors. actives 0.31% (n = 330,000). AID 540303; active = well fitted inhibition curve with a large enough effect; inconclusive = small, poorly fitted or top-dose-only effect; inactive = no such curve, though single readings can be large or run the other way; tested in mouse RAW 264.7 cells; note: potency is the fitted concentration of half-maximal effect; % is set by controls: 0 for no effect and ±100 for the full control effect; nearly all actives have a fitted effect of over 55% in size
DT40 TDP1 no CPT: qHTS for Inhibitors of human tyrosyl-DNA phosphodiesterase 1 (TDP1): qHTS in cells in absence of CPT | AID 686978, 2013 | DT40 Tdp1-/- hTDP1 cells, no CPT, ATP luminescence, 48 h | actives 15% (n = 420,000) | Potency, µM (titrated, usually from 46.2 µM), for the others: at the top dose activity change, negative = growth inhibition, most hits filed as inhibitors; note: potency is the fitted concentration of half-maximal effect; % is set by controls: 0 for no effect and ±100 for the full control effect; nearly all actives have a fitted effect of over 55% in size
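Stably hTDP1-transfected Tdp1-null chicken DT40 cells were treated with library compounds minus camptothecin and grown for at least 48 hr at 37 °C, after which cellular ATP was quantified by luminescence.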
miR-21 FLuc: miR-21 reporter, rising signal; HeLa miR-21 FLuc reporter, luciferase, 48 h; Potency, µM (highest dose often 38.3 µM), for the others: top-dose reporter change, positive = more light; 340,000 tested, under 10 active; AID 2288; active = well fitted rising curve with a large enough effect; inconclusive = small, poorly fitted or top-dose-only effect; inactive = no such curve, though single readings can be large or run the other way;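 further: % of control where 0% means no effect; miR-21 action dims this reporter so a rising signal means less miR-21 action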
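Using DMEM plus 10% FBS, HeLa miR-21-FLuc cells are incubated with test compounds (final up to about 40uM) for 48 hours; firefly luciferase signal is then imaged following reagent-mediated lysis.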
Numbers without * were called inactive; ? = inconclusive; . = no result given. Unless noted, calls come from the whole dose curve; as a rule, active = well fitted curve in the direction sought with a large enough effect; inconclusive = small, poorly fitted or top-dose-only effect, or another doubt; inactive = no such curve, though single readings can be large; an effect the other way counts as inactive or inconclusive.

Keys: A = TDP1 cell CPT; B = TDP1 inh; C = uPA generation; D = DT40 TDP1 no CPT; E = miR-21 FLuc
compound: CCN(CC)C(=O)C(=O)c1c(-c2ccccc2)[nH]c2ccccc12
  A = -22%; B = 3%; C = 2%; D = ?; E = -6%
compound: CCn1c(CNc2ccccc2Cl)nnc1SCCN1CCCCC1
  A = 18µM*; B = 6%; C = 6%; D = 16µM*; E = -4%
compound: CC1(Oc2ccc3ccccc3c2)CCN(Cc2ccc(OC(F)(F)F)cc2)C1 (stereo not drawn)
  A = -25%; B = .; C = .; D = -24%; E = .
compound: COc1cccc(OC2(C)CCN(Cc3ccc(-c4ccccn4)cc3)C2)c1 (stereo not drawn)
  A = 21µM*; B = .; C = .; D = ?; E = .
compound: CC(=O)c1cc2cccc(OC3(C)CCN(Cc4ccc(-c5ccccn5)cc4)C3)c2o1 (stereo not drawn)
  A = ?; B = .; C = .; D = 18µM*; E = .
compound: COC(=O)Cc1ccc(OC2(C)CCN(Cc3ccccc3OC(F)F)C2)cc1 (stereo not drawn)
  A = -13%; B = .; C = .; D = ?; E = .
compound: COc1cc(OC)c(OC)cc1CN1CCN(Cc2ccc(SC)cc2)CC1
  A = ?; B = -2%; C = -18%; D = 13µM*; E = 10%
compound: CC1(Oc2cccnc2Cl)CCN(Cc2ccc(OC(F)(F)F)cc2)C1 (stereo not drawn)
  A = 21µM*; B = .; C = .; D = 18µM*; E = .
compound: COc1cc(CN2CCN(Cc3ccc(SC)cc3)CC2)cc(OC)c1O
  A = -21%; B = -4%; C = -3%; D = -18%; E = -1%
compound: COCOc1cccc(CN2CCC(C)(Oc3cccc(C#N)c3)C2)c1 (stereo not drawn)
  A = ?; B = .; C = .; D = -34%; E = .
compound: COc1ccc(OC)c(C(=O)CSc2nc3c(c(=O)n(C)c(=O)n3C)n2C(C)C)c1
  A = -20%; B = 6%; C = -1%; D = ?; E = 2%
compound: COc1cc(Cl)ccc1OC1(C)CCN(Cc2ccc(SC)cc2)C1 (stereo not drawn)
  A = 13µM*; B = .; C = .; D = 18µM*; E = .
compound: CC1(Oc2cccc(Cl)c2)CCN(Cc2ccc(OC(F)(F)F)cc2)C1 (stereo not drawn)
  A = -19%; B = .; C = .; D = -29%; E = .
compound: Cc1ccccc1OC1(C)CCN(Cc2ccc3ccccc3c2)C1 (stereo not drawn)
  A = ?; B = .; C = .; D = 16µM*; E = .
compound: Cc1ccc(CN2CCC(C)(Oc3cccc(Cl)c3)C2)cc1 (stereo not drawn)
  A = 29µM*; B = .; C = .; D = ?; E = .
compound: CCC1=C(OC(=O)N(CC)CC)N2C(=O)OC(=NCCOC)[C@]2(Cc2ccccc2)[C@H]2C1=CC[C@H]1C(=O)N(CC(=O)OC)C(=O)[C@H]12
  A = -29%; B = 5%; C = -8%; D = -27%; E = 1%
compound: CCCCS(=O)(=O)NC1=NCN(CCO)CN1
  A = -2%; B = 5%; C = 2%; D = 6%; E = 0%
compound: COc1ccc(C(CNC(=O)CCNS(=O)(=O)c2ccc(Br)cc2)N2CCOCC2)cc1 (stereo not drawn)
  A = -15%; B = .; C = ?; D = -1%; E = .
compound: CCN(CC)S(=O)(=O)c1cccc(NC(=O)C2SC(=Nc3ccc(C)cc3C)C(C(=O)NCC3CCCO3)=C2N)c1 (stereo not drawn)
  A = ?; B = 5%; C = -2%; D = 23µM*; E = 8%
compound: COCCNC(=O)C1=C(N)C(C(=O)Nc2ccc(C)c(S(=O)(=O)N3CCCCC3)c2)SC1=Nc1ccc(C)cc1C (stereo not drawn)
  A = 18µM*; B = 11%; C = -15%; D = 18µM*; E = 4%
compound: C=CCC(c1ccccc1F)N(CCN1CCOCC1)C(=O)Nc1cccc(Cl)c1 (stereo not drawn)
  A = ?; B = -1%; C = 4%; D = ?; E = 0%
compound: Cc1cc(C)c(C#N)c(SCC(=O)c2ccc(Cl)cc2Cl)n1
  A = ?; B = 3%; C = -4%; D = 16µM*; E = 22%
compound: COCCn1c(C)cc(C(=O)CSc2nc(C)cc(C)c2C#N)c1C
  A = 21µM*; B = 5%; C = -7%; D = 18µM*; E = -13%
compound: Cc1cc(C)c(C#N)c(SCC(=O)c2cc(C)n(CCc3ccccc3)c2C)n1
  A = 18µM*; B = 7%; C = 6%; D = 18µM*; E = -6%
compound: Cc1cc(C)c(C#N)c(SCc2ccccc2)n1
  A = -10%; B = .; C = -3%; D = -21%; E = -20%
compound: C=CCNC(=O)CSc1nnc(-c2ccccc2Cl)n1-c1c(C)n(C)n(-c2ccccc2)c1=O
  A = 4%; B = 2%; C = .; D = -8%; E = -2%
compound: O=C(CCN1C(=O)/C(=C\c2cccs2)SC1=S)Nc1nccs1
  A = ?; B = 1%; C = -1%; D = -26%; E = -8%
compound: CC1=C(C(=O)OC(C)C)[C@@H](c2ccc(C)o2)NC(=O)N1
  A = 11%; B = 3%; C = 1%; D = -22%; E = -2%
compound: Cc1ccccc1NC(=S)NCc1ccccc1
  A = 29µM*; B = 8%; C = -6%; D = 23µM*; E = 2%
compound: Cc1ccccc1NC(=S)NCc1cccs1
  A = -6%; B = 2%; C = 0%; D = ?; E = 0%
compound: COc1cccc(NC(=S)NCc2ccccc2)c1
  A = -7%; B = .; C = 1%; D = ?; E = -24%
compound: Cc1cc(Cl)ccc1NC(=S)NCc1ccc(Cl)cc1
  A = ?; B = -3%; C = 5%; D = 23µM*; E = 9%
compound: COc1ccc(N2CCN(C(=S)NC(C)c3ccccc3)CC2)cc1 (stereo not drawn)
  A = ?; B = 5%; C = 2%; D = 15µM*; E = 2%
compound: COc1cccc(NC(=S)NCCC(c2ccccc2)c2ccccc2)c1
  A = 21µM*; B = 6%; C = -4%; D = 13µM*; E = 17%
compound: CCCCn1c(N)c(N(CC)C(=O)c2c(C)noc2C)c(=O)[nH]c1=O
  A = 6%; B = 1%; C = 3%; D = 2%; E = .
compound: O=C(c1cc2c(c(-c3cccc(-c4ccncc4)c3)n1)[C@H](CCO)N(C(=O)c1ccc3c(c1)OCO3)C2)N1CCOCC1
  A = ?; B = .; C = .; D = -8%; E = .
compound: COc1ccccc1-c1csc(NC(=O)c2ccc(N3C(=O)CCC3=O)cc2)n1
  A = ?; B = 2%; C = 10%; D = ?; E = 10%
compound: Cc1nc(NC2CCCCC2)c2nc(-c3ccccc3)n(CCCN(C)C)c2n1
  A = .; B = 9%; C = .; D = .; E = .
compound: COc1ccc(CC(=O)Oc2ccccc2C)cc1
  A = 18%; B = .; C = -2%; D = 5%; E = 0%
compound: COc1cccc(C(=O)CSc2nnnn2C)c1
  A = -14%; B = -4%; C = -2%; D = -30%; E = -9%
compound: Cc1cccc(NC(=S)NN(Cc2ccccc2)c2ccccc2)c1C
  A = 25µM*; B = 6%; C = -4%; D = 16µM*; E = 6%
compound: Cc1cc(Cl)ccc1NC(=S)NCCC(c1ccccc1)c1ccccc1
  A = 16µM*; B = 3%; C = 8%; D = 16µM*; E = 8%
compound: COc1cc(NC(=S)NCCC(c2ccccc2)c2ccccc2)cc(OC)c1
  A = ?; B = 0%; C = -6%; D = 18µM*; E = 14%
compound: COc1ccc(NC(=S)NCCC(c2ccccc2)c2ccccc2)c(OC)c1
  A = 18µM*; B = 5%; C = 1%; D = 16µM*; E = 19%
compound: COc1ccc(NC(=S)N2CCN(C(c3ccccc3)c3ccccc3)CC2)c(OC)c1
  A = 15µM*; B = 5%; C = 1%; D = 18µM*; E = 0%
compound: COc1cccc(NC(=S)N2CCN(C(c3ccccc3)c3ccccc3)CC2)c1
  A = -1%; B = -3%; C = -3%; D = -10%; E = -19%
compound: Cc1cccc(NC(=S)NCCC(c2ccccc2)c2ccccc2)c1
  A = ?; B = 6%; C = 0%; D = 16µM*; E = 19%

Structural class: the compounds so far containing two or more sulfur atoms.
Keys: A = TDP1 cell CPT; B = TDP1 inh; C = uPA generation; D = DT40 TDP1 no CPT; E = miR-21 FLuc
compound: CCN(CC)S(=O)(=O)c1cccc(NC(=O)C2SC(=Nc3ccc(C)cc3C)C(C(=O)NCC3CCCO3)=C2N)c1 (stereo not drawn)
  A = ?; B = 5%; C = -2%; D = 23µM*; E = 8%
compound: COCCNC(=O)C1=C(N)C(C(=O)Nc2ccc(C)c(S(=O)(=O)N3CCCCC3)c2)SC1=Nc1ccc(C)cc1C (stereo not drawn)
  A = 18µM*; B = 11%; C = -15%; D = 18µM*; E = 4%
compound: O=C(CCN1C(=O)/C(=C\c2cccs2)SC1=S)Nc1nccs1
  A = ?; B = 1%; C = -1%; D = -26%; E = -8%
compound: Cc1ccccc1NC(=S)NCc1cccs1
  A = -6%; B = 2%; C = 0%; D = ?; E = 0%
